Experimental data reported in patent publication US20250019398A1, “NONAMERIC PEPTIDE HAVING EXCELLENT ANTIBACTERIAL ACTIVITY AGAINST GRAM-NEGATIVE BACTERIA AND ENANTIOMER THEREOF” (priority 2021, published 2025).

What was measured:
Type in all cases: cell-based
[1] = test system: Gram-negative bacteria versus sheep red blood cells; assay: Relative selective index (HC10/GM of MIC); conditions: higher = greater selectivity for bacteria
[2] = test system: sheep red blood cells (sRBCs); assay: Hemolysis of sheep red blood cells; conditions: 200 μM used when no detectable hemolysis at 100 μM
Experimental: Peptide-induced toxicity was determined by hemolysis of sheep red blood cells (sRBCs). Fresh sRBCs were washed three times or more with phosphate buffered saline (PBS), and debris was removed by centrifugation (1000×g, 5 minutes, 4° C.). All the peptides including a melittin control (0.2 to 100 μM) and a positive control (1% (v/v) Triton X-100) were cultured with 4% (v/v) sRBCs at 37° C. for 1 h, and then centrifuged at 1000×g for 5 minutes. The supernatant was measured at 405 nm using a microplate reader.

[3] = test system: all bacterial strains (standard and carbapenem-resistant Gram-negative bacteria); assay: Mean MIC (GM) for all bacterial strains; conditions: all nine strains of Table 2
Experimental: The antimicrobial activities of the peptides were measured by a minimal inhibitory concentration (MIC) analysis. The MIC was determined using a broth dilution method. All bacterial strains were grown overnight at 37° C. in a Muller-Hinton (MH) medium.

CC[C@H](C)[C@H](NC(=O)CN)C(=O)NCC(=O)N[C@@H](C)C(=O)N[C@H](C(=O)N[C@@H](CC(C)C)C(=O)N[C@@H](CCCCN)C(=O)N[C@H](C(=O)N[C@@H](CC(C)C)C(=O)N[C@H](C(=O)N[C@H](C(=O)NCC(=O)N[C@@H](CC(C)C)C(=O)N1CCC[C@H]1C(=O)N[C@@H](C)C(=O)N[C@@H](CC(C)C)C(=O)N[C@H](C(=O)N[C@@H](CO)C(=O)N[C@@H](Cc1c[nH]c2ccccc12)C(=O)N[C@H](C(=O)N[C@@H](CCCCN)C(=O)N[C@@H](CCCNC(=N)N)C(=O)N[C@@H](CCCCN)C(=O)N[C@@H](CCCNC(=N)N)C(=O)N[C@@H](CCC(N)=O)C(=O)N[C@@H](CCC(N)=O)C(N)=O)[C@@H](C)CC)[C@@H](C)CC)[C@@H](C)O)[C@@H](C)O)C(C)C)C(C)C [Melittin]
Relative selective index [1]: 0.25 | HC10 (peptide concentration that induces 10% hemolysis) [2]: 3.1 µM | GM (geometric mean of MIC values for all bacterial strains) [3]: 12.4 µM
